Laboratory results taken from patent US11718827.

Sequences of proteins named here, by UniProt entry; tags and fusion partners are left off. Residues count along the entry.
UniProt Q15116, 25-288 limits assumed: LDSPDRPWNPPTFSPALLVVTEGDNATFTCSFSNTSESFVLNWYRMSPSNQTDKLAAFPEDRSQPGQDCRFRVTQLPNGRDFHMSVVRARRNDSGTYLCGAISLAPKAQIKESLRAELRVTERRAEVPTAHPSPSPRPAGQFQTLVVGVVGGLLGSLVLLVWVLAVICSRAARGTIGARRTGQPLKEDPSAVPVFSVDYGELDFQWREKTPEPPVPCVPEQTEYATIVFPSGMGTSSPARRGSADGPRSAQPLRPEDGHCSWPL

Target: PD-1 (UniProt Q15116)
Assay: flow cytometry of cells incubated with 150 µg/mL fluorescently labelled antibody in PBS

Substance: monoclonal antibody Keytruda
- percent of cells blocked: 90%
